Experimental data as given in PubChem BioAssay AID2013 (Sanford-Burnham Center for Chemical Genomics, 2009).
Where “and” joins values, the source holds several entries; their conditions need not be identical. Equal values may be shown once. The entries are a selection whose mix differs from that of the whole data set. Potency and affinity values are given separately. Calls of active or inactive are those of the source.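 How the source made its calls: active means spots per cell inhibited over 60%, with over 100 cells counted and total cytoplasm intensity under 500,000; inconclusive means wells with under 100 cells, flagged as likely toxic; inactive means the rest.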

By UniProt entry, the sequences of proteins in these tests, tags left out. Where a name states a change or a piece, a line headed by the entry shows the natural chain unless it says otherwise.
UniProt Q9Y2T6: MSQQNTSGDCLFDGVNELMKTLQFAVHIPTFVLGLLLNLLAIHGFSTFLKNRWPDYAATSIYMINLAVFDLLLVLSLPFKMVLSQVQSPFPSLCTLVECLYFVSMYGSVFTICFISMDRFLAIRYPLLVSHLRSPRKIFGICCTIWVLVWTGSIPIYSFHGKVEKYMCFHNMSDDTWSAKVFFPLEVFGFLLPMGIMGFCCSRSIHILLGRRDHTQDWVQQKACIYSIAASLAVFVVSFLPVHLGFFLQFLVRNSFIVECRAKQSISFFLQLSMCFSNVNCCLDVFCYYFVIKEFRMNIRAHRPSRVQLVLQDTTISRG

Molecular target: G-protein coupled receptor 55 (Homo sapiens) (UniProt Q9Y2T6)
Test: GPR55 antagonists blocking LPI-driven arrestin recruitment, primary screen, imaging, U2OS, beta-arrestin-GFP, LPI agonist (AID 2013);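 further: U2OS cells stably carrying GPR55 and arrestin-GFP stimulated by 5 µM LPI near EC80; imaged beta-arrestin-GFP aggregate spots per cell after agonist stimulation; plate controls were LPI-stimulated DMSO wells for no effect and DMSO wells without LPI for full effect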
Settings: U2OS GPR55 beta-arrestin-GFP translocation imaging, LPI antagonism; at 10 µM; active compounds read high

For `c1nnnn1CCn1cnnn1`, which inhibition is on record?
Its inhibition is inactive: 4.9%.

Which inhibition does the source give for `CC(C)C(=O)NC(Sc1ccccc1)C(Cl)(Cl)Cl` (stereo unspecified) here?
The inhibition was inactive: -0.5%.

`O=P(Nc1nccs1)(c1ccccc1)c1ccccc1` was tested. Which inhibition did it give?
Its inhibition is inactive: 8.3%.

How did the inhibition turn out when `Nc1ccc([As](=O)(O)c2ccc([N+](=O)[O-])cc2)cc1` was run?
Its inhibition is inactive: 11.8%.

With `C(Cc1nn[nH]n1)Cc1nn[nH]n1` as the compound, how does the inhibition read?
The inhibition was inactive: -5%.

With `O=C(OC1CN2CCC1CC2)c1cccc(Cl)c1` (stereo unspecified) as the compound, how does the inhibition read?
The inhibition was inactive: 9.9%.

For `O=[N+]([O-])c1ccc(O)c(/C=N/Nc2ccc([N+](=O)[O-])cc2[N+](=O)[O-])c1`, which inhibition is on record?
Its inhibition is inactive: 3.2%.

How did the inhibition turn out when `O=[N+]([O-])c1ncn(CCn2cnc([N+](=O)[O-])n2)n1` was run?
Its inhibition is inactive: 8.4%.

For `CC(=O)NC(SC(=S)N(C)C)C(Cl)(Cl)Cl` (stereo unspecified), which inhibition is on record?
The inhibition was inactive: 8.1%.

With `O=[As](O)(c1ccccc1)c1ccc(O)cc1` as the compound, how does the inhibition read?
The inhibition was inactive: -0.4%.

Which inhibition does the source give for `C[C@H]1OP(=O)(Oc2ccccc2)[C@H](O)[C@H](O)[C@H]1N=[N+]=[N-]` (stereo partly specified) here?
Its inhibition is inactive: -0.1%.

`O=P(Nc1nc2ccccc2s1)(c1ccccc1)c1ccccc1` was tested. Which inhibition did it give?
Its inhibition is inactive: -25.2%.

For `O=P(Nc1ccccn1)(c1ccc(Br)cc1)c1ccc(Br)cc1`, which inhibition is on record?
The inhibition was inactive: 2.2%.

How did the inhibition turn out when `CN(C)C1(CNC(=O)c2ccc(Cl)c(S(N)(=O)=O)c2)CCCCC1` was run?
Its inhibition is inactive: 4.9%.

Which inhibition does the source give for `CN(C)C(=O)Oc1noc2ccccc12` here?
The inhibition was inactive: 5.7%.

With `O=c1c2cc([N+](=O)[O-])ccc2[nH]c2c([N+](=O)[O-])cc([N+](=O)[O-])cc12` as the compound, how does the inhibition read?
Its inhibition is inactive: -10.2%.

With `Cc1ccccc1OP(=O)(Nc1ccccn1)Oc1ccccc1C` as the compound, how does the inhibition read?
The inhibition was inactive: 6.2%.

How did the inhibition turn out when `Cc1ccc(OP(=O)(Nc2ccccn2)Oc2ccc(C)cc2)cc1` was run?
The inhibition was inactive: 2.9%.

With `CC(=O)NC(SC(=S)N(CC(C)C)CC(C)C)C(Cl)(Cl)Cl` (stereo unspecified) as the compound, how does the inhibition read?
Its inhibition is inactive: -1.8%.

For `COC(=O)c1cc2c(s1)N=C(c1ccccc1)N(C)P2(=O)N1CCOCC1` (stereo unspecified), which inhibition is on record?
Its inhibition is inactive: -7.7%.

With `CCC(=O)N1C2C3N(C(=O)CC)C1C1N(C(=O)CC)C(C(N1C(=O)CC)N3C(=O)CC)N2C(=O)CC` as the compound, how does the inhibition read?
The inhibition was inactive: -6.6%.

For `O=C(OC1CN2CCC1CC2)c1ccccc1` (stereo unspecified), which inhibition is on record?
The inhibition was inactive: -1.2%.

For `CCNC(=S)/N=C(\N)N[N+](=O)[O-]`, which inhibition is on record?
The inhibition was inactive: -11.9%.

`O=C(NC1CCS(=O)(=O)C1)NP(=S)(Oc1ccccc1)Oc1ccccc1` (stereo unspecified) was tested. Which inhibition did it give?
The inhibition was inactive: -4.6%.

With `CCOC(=O)NC(Sc1ccccc1)C(Cl)(Cl)Cl` (stereo unspecified) as the compound, how does the inhibition read?
Its inhibition is inactive: 33.9%.

Which inhibition does the source give for `Cc1ccc(NP(=O)(Oc2cccc(C)c2)Oc2cccc(C)c2)nc1` here?
Its inhibition is inactive: 9.3%.

With `c1ccc(-c2nn[nH]n2)c(-c2nn[nH]n2)c1` as the compound, how does the inhibition read?
Its inhibition is inactive: -9.3%.

`CC(=O)Nc1ccc(Oc2c([N+](=O)[O-])cc([N+](=O)[O-])cc2[N+](=O)[O-])cc1` was tested. Which inhibition did it give?
The inhibition was inactive: 5.4%.

For `CC(=O)Nc1ccc([As](=O)(O)O)c(O)c1`, which inhibition is on record?
Its inhibition is inactive: 4.6%.

`CC(=O)c1ccc(N2CC2c2ccncc2)cc1` (stereo unspecified) was tested. Which inhibition did it give?
Its inhibition is inactive: 2%.

With `C[C@@H]1C=CCP(=O)(Oc2ccccc2)O1` (stereo partly specified) as the compound, how does the inhibition read?
The inhibition was inactive: 9.9%.

Which inhibition does the source give for `C[C@H]1OP(=O)(Oc2ccccc2)C[C@@H]2O[C@@H]21` (stereo partly specified) here?
The inhibition was inactive: -2.6%.

How did the inhibition turn out when `CC(C)(C)C(=O)NC(Sc1ccccc1)C(Cl)(Cl)Cl` (stereo unspecified) was run?
The inhibition was inactive: 15.1%.

For `CCOc1ccc(C2=NCC(CBr)S2)cc1` (stereo unspecified), which inhibition is on record?
The inhibition was inactive: 14.7%.

`O=P1(Nc2nc3ccc(Cl)cc3s2)COc2ccccc2O1` (stereo unspecified) was tested. Which inhibition did it give?
Its inhibition is inactive: -2.7%.

How did the inhibition turn out when `CC(C)CC(=O)NC(Sc1ccc(Cl)cc1)C(Cl)(Cl)Cl` (stereo unspecified) was run?
The inhibition was inactive: 27.1%.

For `Nc1cc(N)c2nonc2c1[N+](=O)[O-]`, which inhibition is on record?
Its inhibition is inactive: 0.5%.

Which inhibition does the source give for `Cc1c2non([O-])c-2c(C)[n+](=O)[n+]1[O-]` here?
Its inhibition is inactive: -1.8%.

For `O=C(NC(Sc1ccncn1)C(Cl)(Cl)Cl)c1ccccc1` (stereo unspecified), which inhibition is on record?
The inhibition was inactive: 8.1%.

With `Oc1ccccc1CNc1ccccn1` as the compound, how does the inhibition read?
The inhibition was inactive: -4.1%.

For `Cc1ccc(OP(=O)(Nc2nccs2)Oc2ccc(C)cc2)cc1`, which inhibition is on record?
Its inhibition is inactive: 20.9%.

With `COc1ccccc1OP(=O)(Nc1ccc(C)cn1)Oc1ccccc1OC` as the compound, how does the inhibition read?
Its inhibition is inactive: 10.2%.

For `Clc1ccc(Cl)c(NC2=NCC(CBr)S2)c1` (stereo unspecified), which inhibition is on record?
The inhibition was inactive: 6.9%.

Which inhibition does the source give for `CN1CCCC(OC(=O)C(c2ccccc2)c2ccccc2)C1` (stereo unspecified) here?
Its inhibition is inactive: -5.5%.

`NC(=O)c1cc([N+](=O)[O-])cc([N+](=O)[O-])c1N` was tested. Which inhibition did it give?
Its inhibition is inactive: -8.2%.

`Cc1ccc(N/C(=N/P(=O)(N2CCOCC2)N2CCOCC2)N2CCOCC2)cc1` was tested. Which inhibition did it give?
The inhibition was inactive: -0.5%.

With `CCN(N=Nc1nonc1N)c1nonc1N` as the compound, how does the inhibition read?
The inhibition was inactive: 9.5%.

For `Nc1cccc2ccc([As](=O)(O)O)cc12`, which inhibition is on record?
The inhibition was inactive: 2.1%.

`O=[N+]([O-])c1cc([N+](=O)[O-])c(CCN2CCOCC2)c([N+](=O)[O-])c1` was tested. Which inhibition did it give?
Its inhibition is inactive: 11.8%.

With `Cc1ccc(NP(=O)(Oc2ccccc2F)Oc2ccccc2F)nc1` as the compound, how does the inhibition read?
The inhibition was inactive: -15.4%.

How did the inhibition turn out when `CCOP(=O)(Nc1ccccc1)OCC` was run?
The inhibition was inactive: 5% and inactive: 3.9%.

With `Cc1cc(SC(NC(=O)c2ccc(F)cc2)C(Cl)(Cl)Cl)ncn1` (stereo unspecified) as the compound, how does the inhibition read?
The inhibition was inactive: 5.7%.

For `O=C(O)c1ccccc1[As](=O)(O)O`, which inhibition is on record?
The inhibition was inactive: -0.8%.

How did the inhibition turn out when `CC(=O)Nc1ccc([As](=O)(O)O)cc1` was run?
Its inhibition is inactive: 4.9%.

Which inhibition does the source give for `O=P(Nc1nc2ccc(Cl)cc2s1)(c1ccccc1)c1ccccc1` here?
The inhibition was inactive: 13.1%.

With `O=[N+]([O-])c1cccc(NC2=NCC(CBr)S2)c1` (stereo unspecified) as the compound, how does the inhibition read?
The inhibition was inactive: -12.5%.

`O=C(O)CNc1ccc([As](=O)(O)O)cc1` was tested. Which inhibition did it give?
Its inhibition is inactive: 15.5%.

With `CC(C)(C)C(=O)NC(Sc1ccncn1)C(Cl)(Cl)Cl` (stereo unspecified) as the compound, how does the inhibition read?
Its inhibition is inactive: 7.5%.

How did the inhibition turn out when `O=[N+]([O-])c1ncn(CCn2ncnc2[N+](=O)[O-])n1` was run?
The inhibition was inactive: 9.6%.

Which inhibition does the source give for `O=C(Nc1cc([As](=O)(O)O)ccc1O)c1ccccc1` here?
The inhibition was inactive: 6.1%.

With `CN(C)C(=O)OCCc1n(C)cc[n+]1C` as the compound, how does the inhibition read?
Its inhibition is inactive: 4.8%.

`CC(C)=N/N=C(\N)N[N+](=O)[O-]` was tested. Which inhibition did it give?
The inhibition was inactive: 5.3%.

`CC1CCN(C(=O)Oc2c(Cl)cc(Cl)c3cccnc23)CC1` was tested. Which inhibition did it give?
Its inhibition is inactive: -1.2%.

How did the inhibition turn out when `C[N+]1=C2C=CC=CC=C2SC12C([N+](=O)[O-])=CC([N+](=O)[O-])=C[C-]2[N+](=O)[O-]` (stereo unspecified) was run?
The inhibition was inactive: 27.2%.

With `Nc1ccc([As](=O)(O)c2ccc(N)cc2)cc1` as the compound, how does the inhibition read?
Its inhibition is inactive: 14%.

Which inhibition does the source give for `CCN(/C(=N/P(=O)(N1CCOCC1)N1CCOCC1)N1CCOCC1)c1ccc(OC)cc1` here?
The inhibition was inactive: 2.8%.
